The chains behind the UniProt entries cited, without tags or fusion partners.
UniProt P21453, whole entry: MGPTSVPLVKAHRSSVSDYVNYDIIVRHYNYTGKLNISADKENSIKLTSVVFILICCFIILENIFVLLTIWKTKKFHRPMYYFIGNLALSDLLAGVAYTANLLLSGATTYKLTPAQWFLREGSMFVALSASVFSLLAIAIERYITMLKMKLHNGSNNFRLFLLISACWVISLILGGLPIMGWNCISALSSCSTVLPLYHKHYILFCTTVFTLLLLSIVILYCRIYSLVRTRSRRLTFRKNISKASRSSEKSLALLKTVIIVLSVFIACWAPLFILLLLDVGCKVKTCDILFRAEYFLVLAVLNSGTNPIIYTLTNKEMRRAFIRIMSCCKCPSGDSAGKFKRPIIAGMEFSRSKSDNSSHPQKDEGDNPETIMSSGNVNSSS

In ChEMBL document CHEMBL5150013, “The Repertoire of Small-Molecule PET Probes for Neuroinflammation Imaging: Challenges and Opportunities beyond TSPO” (J Med Chem, 2021):

Target: Sphingosine 1-phosphate receptor 1 (Homo sapiens, UniProt P21453)

## OCc1ccc(-c2noc(-c3ccc(OCC[18F])c(C(F)(F)F)c3)n2)cc1
  IC50: 6.7 nM
